From ChEMBL document CHEMBL1153880, “Synthesis and adrenolytic activity of 1-(1H-indol-4-yloxy)-3-{[2-(2-methoxyphenoxy)ethyl]amino}propan-2-ol and its enantiomers. Part 1” (Eur J Med Chem, 2009)

Chains of the proteins cited; added tags and fusions are not shown. Lines headed by an entry give the natural chain unless they say otherwise; changes in a name come on top.
UniProt P22086: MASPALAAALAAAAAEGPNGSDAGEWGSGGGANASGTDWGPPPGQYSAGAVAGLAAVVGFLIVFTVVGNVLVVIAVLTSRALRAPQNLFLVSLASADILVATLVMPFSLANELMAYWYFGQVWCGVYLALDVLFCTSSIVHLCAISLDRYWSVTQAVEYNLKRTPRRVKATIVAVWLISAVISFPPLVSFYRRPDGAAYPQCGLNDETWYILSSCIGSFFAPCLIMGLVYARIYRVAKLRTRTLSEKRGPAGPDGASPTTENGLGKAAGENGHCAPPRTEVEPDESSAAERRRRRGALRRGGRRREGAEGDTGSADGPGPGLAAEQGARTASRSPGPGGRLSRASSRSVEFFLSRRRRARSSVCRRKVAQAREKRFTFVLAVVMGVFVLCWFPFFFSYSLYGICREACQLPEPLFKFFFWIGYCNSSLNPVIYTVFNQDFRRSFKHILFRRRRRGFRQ
UniProt P19328: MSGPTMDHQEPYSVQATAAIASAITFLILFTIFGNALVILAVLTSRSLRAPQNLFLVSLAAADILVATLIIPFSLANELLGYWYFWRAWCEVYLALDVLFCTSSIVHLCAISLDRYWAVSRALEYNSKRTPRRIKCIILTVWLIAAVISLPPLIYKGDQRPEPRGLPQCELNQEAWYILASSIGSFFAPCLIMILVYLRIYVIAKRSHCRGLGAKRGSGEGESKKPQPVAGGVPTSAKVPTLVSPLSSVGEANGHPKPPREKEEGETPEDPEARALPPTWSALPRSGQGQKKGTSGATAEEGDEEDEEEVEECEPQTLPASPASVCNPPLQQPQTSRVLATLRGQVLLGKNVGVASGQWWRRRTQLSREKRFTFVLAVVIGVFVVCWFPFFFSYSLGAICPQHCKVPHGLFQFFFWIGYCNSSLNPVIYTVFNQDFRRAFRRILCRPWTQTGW
UniProt P22909: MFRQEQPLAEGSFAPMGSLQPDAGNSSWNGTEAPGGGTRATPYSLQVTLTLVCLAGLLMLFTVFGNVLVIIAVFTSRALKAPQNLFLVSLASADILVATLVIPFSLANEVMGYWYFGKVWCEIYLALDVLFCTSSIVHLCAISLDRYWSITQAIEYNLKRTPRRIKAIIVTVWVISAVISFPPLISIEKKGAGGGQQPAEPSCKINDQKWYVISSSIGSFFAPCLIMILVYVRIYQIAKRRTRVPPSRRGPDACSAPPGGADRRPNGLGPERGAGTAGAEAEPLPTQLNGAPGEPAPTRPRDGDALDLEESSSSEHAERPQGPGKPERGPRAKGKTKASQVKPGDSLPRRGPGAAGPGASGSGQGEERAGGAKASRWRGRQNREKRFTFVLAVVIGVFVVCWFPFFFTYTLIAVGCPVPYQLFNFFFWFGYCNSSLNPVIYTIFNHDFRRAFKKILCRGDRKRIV

Molecular target: Adrenergic receptor alpha-2 (Rattus norvegicus, UniProt P22086+P19328+P22909)
Assay: Displacement of [3H]clonidine from alpha2 adrenergic receptor in rat cerebral cortex by liquid scintillation method
Assay type: tissue-based

Work on `COc1ccccc1OCCNCC(O)COc1cccc2[nH]c3ccccc3c12` (stereo unspecified) [CARVEDILOL] yielded a Ki of 3.4 nM.
